We go through one substance from patent US20080139457A1, “Therapeutic compositions comprising chorionic gonadotropins and HMG CoA reductase inhibitors” (Virginia Commonwealth University, priority 2005, published 2008).

“Also recorded” adds a separate entry of the source.

Common to all, as to type: cell-based, human
One test deals with PC3 cells. The test can be described thus: Apoptosis assay in PC3 cells (trypan blue exclusion). On the procedure: Apoptosis assay in PC3 cells (Treatment of hCG and radiation). PC3 cells were cultured as described above. 24 hours after plating, the cells were treated with hCG (ProSpec-Tany) (2 mU/ml) 30 minutes prior to radiation exposure (0-6 Gy). The cells were isolated by trypsinization 96 hours after irradiation. […] The administration of hCG in combination with radiation (6 Gy) promoted the highest percentage of apoptosis.
Activation of ERK ½ and AKT and the Expression of ERK2 Following Treatment with hCG and Lovastatin. PC3 prostate carcinoma cells were cultured as described above.
Apoptosis assay in PC3, 22RW1 and SKOV3 cells.

For test [1], the system named is LNCaP cells. The test can be described thus: Apoptosis assay in LNCaP cells (trypan blue exclusion). How it is done:
Cell culture. Human prostate cells (PC3 and LCNaP) were purchased from the ATCC were cultured at 37° C. (5% (v/v CO2) in vitro using RPMI supplemented with 10% (v/v) fetal calf serum.
LNCaP cells were cultured as described above. […] The cells were isolated by trypsinization 96 hours after irradiation. The attached and floating cells were combined, and cell viability was determined by trypan blue exclusion assays using a light microscope (*p<0.05 value greater than corresponding vehicle/irradiated+vehicle value; n=3 per data point ±SEM from 3 studies).
LNCaP cells were cultured as described above. […] Caspase inhibitors were re-supplemented every 24 hours. After 96 hours of culture, cell viability numbers were determined MTT assays using a plate reader. The cells were isolated 96 hours after irradiation by trypsinization, the attached and floating cells combined, and cell viability determine by trypan blue exclusion assays using a light microscope.
(2) LNCaP cells were cultured as described above. […] Cells were isolated 96 h after irradiation by trypsinization, the attached and floating cells combined, and cell viability determine by trypan blue exclusion assays using a light microscope.
(§1) LNCaP cells were cultured as described above. […] Cells were isolated 96 hours after irradiation by trypsinization, the attached and floating cells combined, and cell viability determine by trypan blue exclusion assays using a light microscope. Cells were then lysed in SDS PAGE sample buffer and equal protein concentrations subjected to SDS PAGE followed by immunoblotting to determine the PARP1 ADP-ribosylation status (activity status) in the presence or absence of PJ-34.
as §1, with “in Example 1. Twelve hours after plating the cells were transfected using Lipofectamine with either a scrambled siRNA (SCR) or with siRNA molecules to suppress PARP1 or AIF expression (siPARP; siAIF; 10 nM each).” for “above.”, “determine” for “determine the”, “and AIF expression” for “ADP-ribosylation status (activity status)”, “siPARP and siAIF, siRNA molecules, respectively.” for “PJ-34.”

Test [2] concerns LNCaP cells. Kind of test: Cell survival (colony formation) assay in LNCaP cells. As to conditions: hCG 2 mU/ml 30 min prior to radiation 0-6 Gy; colonies over 28 days. How it is done: Bioassay for cell survival. LNCaP cells were cultured as described above. […] Ninety six hours after irradiation, media containing hCG was removed and fresh media lacking hCG added. Colonies were permitted to form over the following 28 days after which the media was removed, the cells fixed and stained with crystal violet. Groups of >50 cells were considered to be colonies.
Apoptosis Assay. LNCaP cells were cultured as described above. […] Thirty minutes after hCG exposure, cells were irradiated (4 Gy). Ninety six hours after irradiation, media containing hCG and AG1478 was removed and fresh media lacking hCG/AG1478 added. Colonies were permitted to form over the following 28 days after which the media was removed, the cells fixed and stained with crystal violet. Groups of >50 cells were considered to be colonies.
Bioassay for cell survival. LNCaP cells were cultured as described above. […] Ninety six hours after hCG and lovastatin treatment, media containing hCG and lovastatin was removed and fresh media lacking hCG and lovastatin was added. Colonies were permitted to form over the following 28 days after which the media was removed, the cells fixed and stained with crystal violet. Groups of >50 cells were considered to be colonies.

The next test relates to ERK½, JNK½, AKT (S473). Kind of test: Immunoblotting of phosphorylation status of ERK½, JNK½, AKT in LNCaP cells. The following applies: hCG 2 mU/ml, within 6 hours. On the procedure: SDS-PAGE and Immunoblotting. The cells were plated at 5×10^5 cells/cm^2 and treated with drugs at the indicated concentrations and after the indicated time of treatment, lysed in whole-cell lysis buffer (0.5 M Tris-HCl, pH 6.8, 2% SDS, 10% glycerol, 1% β-mercaptoethanol, 0.02% bromophenol blue), and the samples were boiled for 30 minutes. The boiled samples were loaded onto 10-14% SDS-PAGE and electrophoresis was run overnight. Proteins were electrophoretically transferred onto 0.22 μm nitrocellulose, and immunoblotted with various primary antibodies against different proteins. All immunoblots were visualized by enhanced chemiluminescence (ECL).
(1) LNCaP cells were cultured as described above. […] 0-6 hours after treatment, the cells were isolated, lysed in SDS PAGE sample buffer and equal protein concentrations subjected to SDS PAGE followed by immunoblotting to determine the phosphorylation status (activity status) of ERK½, JNK½, AKT (S473) and the expression level of ERK2 protein.
(2) LNCaP cells were cultured as described above. 12 hours after plating, the cells were treated with vehicle (VEH, PBS) or pertussis toxin (300 ng/ml). 23 hours after plating cells were treated with vehicle (VEH, DMSO) or the ERBB1 inhibitor AG1478 (1 μM).
(4) LNCaP cells were cultured as described above. […] Thirty minutes after irradiation the cells were isolated, lysed in SDS PAGE sample buffer and equal protein concentrations subjected to SDS PAGE followed by immunoblotting to determine the phosphorylation status (activity status) of ERK½ and ERBB1 Y1068 and the expression levels of ERBB1 and ERK2 proteins.
LNCaP cells were cultured as described above. […] At the indicated times after treatment (12-96 h), the cells were isolated, lysed in SDS PAGE sample buffer and equal protein concentrations subjected to SDS PAGE followed by immunoblotting to determine the phosphorylation status (activity status) of ERK½, JNK½, AKT (S473) and the expression level of ERK2 protein.
For orientation: In western blotting, separated proteins are transferred to a membrane and probed.

The test system of a further test is ERBB1. The test can be described thus: Immunoblotting of ERBB1 phosphorylation in LNCaP cells. The following applies: hCG 2 mU/ml, 0-180 min. How it is done:
(§2) SDS-PAGE and Immunoblotting. The cells were plated at 5×10^5 cells/cm^2 and treated with drugs at the indicated concentrations and after the indicated time of treatment, lysed in whole-cell lysis buffer (0.5 M Tris-HCl, pH 6.8, 2% SDS, 10% glycerol, 1% β-mercaptoethanol, 0.02% bromophenol blue), and the samples were boiled for 30 minutes. […] All immunoblots were visualized by enhanced chemiluminescence (ECL).
(2) LNCaP cells were cultured as described above. 12 hours after plating, the cells were treated with vehicle (VEH, PBS) or pertussis toxin (300 ng/ml). 23 hours after plating cells were treated with vehicle (VEH, DMSO) or the ERBB1 inhibitor AG1478 (1 μM). 24 hours after plating, cells were treated with hCG (2 mU/ml) or vehicle (VEH, PBS).
(3) LNCaP cells were cultured as described above. 24 hours after plating, the cells were treated with hCG (2 mU/ml) or its vehicle (VEH, PBS).
(4) LNCaP cells were cultured as described above. Twenty four hours after plating cells were pretreated with vehicle (VEH, DMSO), the MEK½ inhibitor PD184352 (1 μM), or the metalloprotease inhibitor GM6001 (1 μM), and then treated 30 minutes afterwards with hCG (2 mU/ml) or its vehicle (VEH, PBS). Thirty minutes after hCG treatment, cells were irradiated (4 Gy). […] Results indicated an increase in ERBB1 Y1173 phosphorylation induced by hCG, 30 min after treatment. This increase was further enhanced by radiation exposure and was abolished by incubation of cells with the specific MEK½ inhibitor PD184352.

Another test concerns PARP1. The test can be described thus: PARP1 ADP-ribosylation status (immunoblot) in LNCaP cells. The following applies: hCG 2 mU/ml, 4 Gy, 30 min after irradiation. How it is done:
as §2
PARP1 Activation and Expression Following Treatment with hCG and Radiation. LNCaP cells were cultured as described above. Twenty four hours after plating, the cells were treated with hCG (2 mU/ml) or vehicle (VEH, PBS) followed 30 minutes later by irradiation (4 Gy).
PARP1 Activation and Expression Following Treatment with an ERBB1 Inhibitor, hCG and Radiation. LNCaP cells were cultured as described above. Twelve hours after plating, the cells were infected with either empty vector virus (CMV) or with a virus to express dominant negative ERBB1 (CD533) at a multiplicity of infection (m.o.i.) of 25. Twenty four hours after plating or 24 h after infection, cells were treated with hCG (2 mU/ml) or vehicle (VEH, PBS), and after 30 minutes were irradiated (4 Gy). Treatment with AG1478 or vehicle (VEH, DMSO) was made either 5 minutes after or 30 minutes before radiation.

The subject of the next test is PC-3 cells. Kind of test: Colony formation assay in PC-3 cells. The following applies: hCG with radiation.
Setting [3] is: pre-treatment with hCG for 12 hours or 6 hours.
[4] abbreviates: pretreatment with hCG for 30-90 min.

Consider Human chorionic gonadotropin [hCG], for which the “apoptosis (cell viability by trypan blue), hCG with radiation” value in the test on PC3 cells (hCG 2 mU/ml 30 min prior to radiation 0-6 Gy, 96 h after irradiation) is listed as “promoted apoptosis at a greater percentage than the administration of hCG alone”. Further, in the test with PC3 cells (hCG 2 mU/ml, within 96 hours), the “cell killing as a single agent” value is on record as “caused a modest amount of cell killing as a single agent”. For the same substance, in the test on PC3 cells (setting [3]), the “radiosensitization, long pre-treatment” value is listed as “did not significantly radiosensitize”. For the same substance, the “radiosensitization, short pre-treatment” value in the test with PC3 cells (setting [4]) is listed as “enhanced the lethality of radiation”. Further, in the test with LNCaP cells [1] (hCG 2 mU/ml 30, 60, 90 min prior to radiation (4 Gy), 96 h after irradiation), the “apoptosis / cell death (trypan blue), hCG with radiation” value is listed as “promoted apoptosis at a greater percentage than the administration of hCG alone; also recorded: greater than additive increase in cell death”. For the same substance, in the test with LNCaP cells [1] (hCG 2 mU/ml, within 96 hours), the “cell killing as a single agent” value is reported as “caused a modest amount of cell killing as a single agent”. Besides, the “radiosensitization, long pre-treatment” value in the test on LNCaP cells [1] (setting [3]) is on record as “did not significantly radiosensitize”. Moreover, the “radiosensitization, short pre-treatment” value in the test with LNCaP cells [1] (setting [4]) was “enhanced the lethality of radiation”. Further, the “cell survival (colony formation), hCG with radiation” value with LNCaP cells [2] was “promoted a decrease in cell survival when compared to the control; also recorded: radiosensitized”. Besides, in the test on ERK½, JNK½, AKT (S473), the “AKT activity (S473)” value is “did not significantly alter the high basal level of AKT activity”, the “activation of ERK½” value was “promoted activation of ERK½”, the “activation of JNK½” value is on record as “to a lesser extent activation of JNK½” and the “activation of the p38 MAPK pathway” value is listed as “did not promote activation of the p38 MAPK pathway”. Moreover, in the test on ERBB1, the “ERBB1 activation: phosphorylation of Y1173 and Y1068” value is “activated ERBB1; also recorded: prolonged phosphorylation of ERBB1 at Y1173 and Y1068”; the “ERBB1 phosphorylation at Y845” value is recorded as “transient phosphorylation at Y845”; the “ERBB1 phosphorylation at Y992” value is “little detectable phosphorylation at Y992”. For the same substance, the “PARP activation (PARP1 ADP-ribosylation), hCG with radiation” value in the test on PARP1 is given as “acted in a greater than additive fashion to cause activation of poly ADP ribosyl polymerase (PARP)”. The “radiosensitization in colony formation assays” value in the test on PC-3 cells is listed as “radiosensitized”.
